# Assay: Binding to phosphatidylcholine-coated silica beads (TRANSIL Intestinal Absorption Kit)
# Details: compared with the physiologically active substance alone taken as 1
# Description: In the evaluation herein, the binding of substances to silica beads coated with a phospholipid (phosphatidylcholine) was compared. A higher binding indicates a higher cell membrane transport and a higher intestinal absorption.
# An aqueous phase was prepared and the pH was adjusted with a pH adjuster to a pH value of 6. The aqueous phase and an oil phase were heated to 50 to 60° C. The aqueous phase was added to the oil phase. The mixture was stirred with a homogenizer (HG-200, As One Corporation) at a high speed of 10,000 rpm for 10 minutes to give an emulsion.
# The affinity with phosphatidylcholine-coated silica beads (TRANSIL Intestinal Absorption Kit, SOVICELL GMBH) was assessed. […] The fluorescence intensity of the supernatant was measured with a spectrophotometer (Hitachi F-2700, excitation wavelength: 494 nm, fluorescence wavelength: 521 nm).
# A volume of 200 μl of PBS containing the beads was added to each tube, and 20 μl of each of the compositions was added. […] The absorbance of the oil red solution in methanol was measured at 510 nm with an ultraviolet spectrophotometer (Shimadzu UV-1200). The relative amount of the pigment of Example 14 or Comparative Example 4 bound to the beads was calculated, with the obtained value of an oil red solution (Comparative Example 5) taken as 1. […]
# The calculated value was expressed by the symbols A, B and C. […]
substance,measurement,setting,value
Catechin,"Relative amount of physiologically active substance bound to the beads, Example (sophorolipid)",substance emulsified with sophorolipid,B (affinity of not less than 2.0-fold and less than 5.0-fold)
same,"Relative amount of physiologically active substance bound to the beads, Comparative Example (sucrose fatty acid ester)",substance emulsified with sucrose fatty acid ester,C (affinity of less than 2.0-fold)

# Reference: patent publication US10307466B2, “Composition comprising sophorolipid, physiologically active substance and oil or fat, and method for producing the same” (SARAYA CO., LTD., priority 2014, dated 2019)
